Data taken from PubChem BioAssay AID463082 (The Scripps Research Institute Molecular Screening Center, 2010).
Only a part is listed here, and it is no random draw. The source made the active and inactive calls.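 Rule for the calls: active = inhibition above the mean inhibition across the screen plus 3 SD (cut at about 25% in these data); inactive = the rest.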

Chains of the proteins cited; added tags and fusions are not shown.
UniProt Q13093, whole entry: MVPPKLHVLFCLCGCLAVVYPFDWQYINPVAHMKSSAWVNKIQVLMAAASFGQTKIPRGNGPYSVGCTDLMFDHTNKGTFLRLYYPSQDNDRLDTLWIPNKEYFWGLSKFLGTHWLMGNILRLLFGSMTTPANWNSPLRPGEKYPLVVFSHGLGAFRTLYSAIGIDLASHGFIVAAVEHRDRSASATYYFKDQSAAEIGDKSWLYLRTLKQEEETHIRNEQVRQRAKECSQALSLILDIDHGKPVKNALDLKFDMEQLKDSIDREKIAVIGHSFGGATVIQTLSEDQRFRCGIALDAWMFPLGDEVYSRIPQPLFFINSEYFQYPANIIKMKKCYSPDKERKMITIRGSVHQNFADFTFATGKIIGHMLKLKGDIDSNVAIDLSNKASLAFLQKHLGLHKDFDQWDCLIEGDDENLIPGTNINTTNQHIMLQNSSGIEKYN

molecular target: Platelet-activating factor acetylhydrolase (Homo sapiens) (UniProt Q13093); assay: pPAFAH enzyme inhibitors, primary screen, biochemical, fluorescence polarization, human (AID 463082); settings: recombinant pPAFAH, FP-rhodamine probe fluorescence polarization; at 3.39 µM; stronger effect = higher value;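 note: inhibitors block binding of the rhodamine activity-based probe so polarization drops; 0% = enzyme with DMSO and 100% = wells lacking pPAFAH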

Compound	inhibition
CN(C)C1(CNC(=O)c2cccc(C#N)c2)CCCCC1	inactive: 0.82%
CCCN1CCC(Nc2cc(OC)cc(OC)c2)CC1	inactive: 1.7%
c1ccc(CN2CCC(Nc3ccccc3)CC2)cc1	inactive: 2.48%
N#Cc1ccc(C(=O)NCC2(N3CCCCC3)CCCCC2)cc1	inactive: 2.66%
CC(C)(C)OC(=O)N1CCC(N(C(=O)c2ccccc2)c2ccc(Cl)cc2)CC1	inactive: 1.35%
CCOC(=O)N1CCC(Nc2ccc(C)cc2)CC1	inactive: 2.05%
N/C(=N\O)c1c(N)no[n+]1[O-]	inactive: -6.27%
CCc1cc(C(=O)NCC2(N3CCCCC3)CCCCC2)sc1C	inactive: 2.31%
O=C(OC1CN2CCC1CC2)C1c2ccccc2C=Cc2ccccc21 (stereo not drawn)	inactive: 0.24%
COc1cc(C(=O)NCC2(N3CCOCC3)CCCCC2)cc(OC)c1C	inactive: 3.38%
O=C(NCC1(N2CCOCC2)CCCCC1)c1cc(Br)ccc1Cl	inactive: -1.21%
COc1ccc(C(=O)NCC2(N3CCOCC3)CCCCC2)cc1OC	inactive: 3.28%
COc1cccc(C(=O)N(c2cc(C)cc(C)c2)C2CCN(C(=O)OC(C)(C)C)CC2)c1	inactive: 4.82%
COc1cc(OC)cc(C(=O)NCC2(N3CCOCC3)CCCCC2)c1	inactive: -4%
CCC(CO)(C(=O)OC1CN2CCC1CC2)c1ccccc1 (stereo not drawn)	inactive: 0.34%
CN1CCC(Nc2ccc(Cl)cc2)CC1	inactive: 3.88%
CCCOc1ccc(C)cc1CN(CCCl)CCCl	inactive: 0.1%
CN1CCC(Nc2ccc(F)c(Cl)c2)CC1	inactive: 2.84%
CCOc1ncccc1C(=O)NCC1(N2CCOCC2)CCCCC1	inactive: 4.71%
O=C(O)C1(Nc2ccccc2)CCN(Cc2ccccc2)CC1	inactive: -0.83%
CC(C)(C)OC(=O)N1CCC(Nc2ccccc2)CC1	inactive: 3.71%

Compound	inhibition
CCCOc1ccc(C(=O)NCC2(N(C)C)CCCCC2)cc1	inactive: 0.04%
CCN1CCC(Nc2cccc(F)c2)CC1	inactive: 3.17%
CN(C)c1ccc(C(=O)NCC2(N3CCCCC3)CCCCC2)cc1	inactive: 0.57%
O=C(NCC1(N2CCCCC2)CCCCC1)c1ccco1	inactive: -5.64%
COc1cc(OC)cc(C(=O)NCC2(N3CCCCC3)CCCCC2)c1	inactive: -6.87%
Fc1ccccc1NC1CCN(Cc2ccccc2)CC1	inactive: 0.64%
Cc1ccc(C(=O)NCC2(N3CCCCC3)CCCCC2)o1	inactive: 0.8%
Cc1ccc(OCC(C)C)c(CN(CCCl)CCCl)c1	inactive: 4.45%
CCOC(=O)N1CCC(Nc2cccc(C)c2)CC1	inactive: 2.18%
CCOc1ccc(C)cc1CN(CCCl)CCCl	inactive: 3.2%
COc1ccc(NC2CCN(CCc3ccccc3)CC2)c(OC)c1	inactive: 1.67%
O=C(NCC1(N2CCCCC2)CCCCC1)c1ccc(F)cc1	inactive: -3.36%
Cc1cc(C)cc(N(C(=O)c2ccccc2)C2CCN(C(=O)OC(C)(C)C)CC2)c1	inactive: 1.28%
O=C(NCC1(N2CCCCC2)CCCCC1)c1ccc(Cl)nc1	inactive: -2.01%
O=C(NCC1(N2CCOCC2)CCCCC1)c1cc2ccccc2o1	inactive: 12%
COc1ccc(Cl)cc1C(=O)NCC1(N2CCOCC2)CCCCC1	inactive: 0.47%
N#CC1(Nc2ccccc2)CCN(Cc2ccccc2)CC1	inactive: 4.27%
O=C(NCC1(N2CCCCC2)CCCCC1)c1ccc(Cl)s1	inactive: -2.74%
O=C(OC1CN2CCC1CC2)C1c2ccccc2Oc2ccccc21 (stereo not drawn)	inactive: -0.93%
CCOC(=O)N1CCC(Nc2ccc(OC)cc2)CC1	inactive: 5.06%
COc1ccc(C(=O)NCC2(N3CCCCC3)CCCCC2)c(OC)c1OC	inactive: 2.03%

Compound	inhibition
CC(C)(C)OC(=O)N1CCC(N(C(=O)c2ccccc2)c2ccc(F)cc2)CC1	inactive: 3.49%
COc1ccc(C(=O)NCC2(N3CCCCC3)CCCCC2)cc1	inactive: 5.71%
O=C(NCC1(N2CCCCC2)CCCCC1)c1cccs1	inactive: 2.72%
O=C(NCC1(N2CCCCC2)CCCCC1)c1ccc(=O)[nH]c1	inactive: 1.16%
CSc1ccccc1C(=O)NCC1(N2CCCCC2)CCCCC1	inactive: 1.04%
CN1CCC(Nc2cccc(F)c2)CC1	inactive: 4.22%
O=C(NCC1(N2CCCCC2)CCCCC1)c1cncc(Br)c1	inactive: -0.65%
CC(C)c1ccc(NC2CCN(C(=O)OC(C)(C)C)CC2)cc1	inactive: 1.51%
CN(C)c1cccc(C(=O)NCC2(N3CCCCC3)CCCCC2)c1	inactive: 0.54%
COc1ccc(CN(CCCl)CCCl)cc1Cl	inactive: 0.94%
O=C(NCC1(N2CCOCC2)CCCCC1)c1cc(F)c(F)cc1Cl	inactive: 2.68%
COc1cc(OC)c(C(=O)NCC2(N(C)C)CCCCC2)cc1OC	inactive: 4.76%
O=C(NCC1(N2CCCCC2)CCCCC1)c1cccc(C(F)(F)F)c1	inactive: 2.3%
O=C(NCC1(N2CCOCC2)CCCCC1)c1cc(=O)[nH]c2ccccc12	inactive: -3.03%
COc1cc(C(=O)NCC2(N3CCCCC3)CCCCC2)ccc1OC(F)F	inactive: 2.3%
COc1ccc(NC2CCN(C(=O)OC(C)(C)C)CC2)cc1	inactive: -4.44%
CN1CCN(CCOC(=O)C(O)(c2ccccc2)c2ccccc2)CC1	inactive: -0.5%
O=C(NCC1(N2CCCCC2)CCCCC1)c1ccc(OC(F)F)cc1	inactive: -0.26%
N#CC1(Nc2ccccc2)CCN(CCc2ccccc2)CC1	inactive: 3.53%
CCN1CCC(Nc2ccc(Cl)cc2)CC1	inactive: 5.63%
O=C(NCC1(N2CCCCC2)CCCCC1)c1cccc([N+](=O)[O-])c1	inactive: 2.41%
